## Ab-91 heavy chain CDR variants: yeast mating affinities

From the AlphaSeq antibody data of Engelhart et al. 2022 (doi:10.1038/s41597-022-01779-4), copy in the FLAb collection.

Binding partner: SARS-CoV-2 spike HR2 peptide, sequence PDVDLGDISGINAS.

Parent: Ab-91, a human scFv built as VL, a 15-residue (Gly4Ser)3 linker, VH. Only the CDRs of the heavy chain vary.
VL: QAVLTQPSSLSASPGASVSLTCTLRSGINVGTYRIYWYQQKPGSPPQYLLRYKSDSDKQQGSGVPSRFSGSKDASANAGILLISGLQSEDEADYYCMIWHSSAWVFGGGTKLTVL
VH: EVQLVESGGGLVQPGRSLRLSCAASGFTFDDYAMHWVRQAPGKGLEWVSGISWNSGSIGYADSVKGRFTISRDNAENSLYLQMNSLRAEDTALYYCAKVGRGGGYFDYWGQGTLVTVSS

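The library (AAYL51) carries one to three amino acid substitutions per variant, with no insertions or deletions. The scFvs were displayed on barcoded MATa yeast, the peptide on MATalpha yeast. Mating (16 h, 30 °C) was followed by selection of diploids and sequencing of their barcodes. Read counts were normalised to the haploid input and turned into Kd by a linear fit to BCL2-family pairs of known affinity, for each replicate. Each pool was mated in three replicate cultures.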

Variants are written as CDR1, CDR2 and CDR3 of the heavy chain (limits as in the source). Parent: GFTFDDYAMH, GISWNSGSIGYADSVK, VGRGGGYFDY.
Every variant below is changed at F29 of the VH (sequential numbering).
Affinities are written as log10 Kd with Kd in nM; a lower number is a better binder.
A mean of the replicates is given; it leaves out those without a signal.
A pair that was not seen in that replicate is written "nd"; this usually means weak binding, but a binder can also be missed.
Parent in this assay: reference entry 1.86, copy in this library 0.88.
Three control strains display no target. For library AAYL51, 21% of the pairings with them gave a signal, with a median of 4.54 and one signal in twenty below 3.26, so weak values seen in few replicates may be background.

CDR-H1	CDR-H2	CDR-H3	replicates, log10 nM	mean log10 Kd (nM)
GFYQDVYAMH	GISWNSGSIGYADSVK	VGRGGGYFDY	4.60 / 3.88 / 4.39	4.29
WFTWDDYAMH	GISWNSFSIGYADSVK	VGRGGGYFDY	nd / 5.22 / nd	5.22
GFTPDDYAMH	GISWNSGSIGYADSRK	VGRGGRYFDY	nd / nd / nd	nd
GCTQDDYAMH	GISWNSGSIGYADSHK	VGRGGGYFDY	nd / nd / nd	nd
GFSKPDYAMH	GISWNSGSIGYADSVK	VGRGGGYFDY	4.47 / 3.58 / 3.94	3.99
GFTNDDYAMT	GISWNSGSILYADSVK	VGRGGGYFDY	5.08 / nd / nd	5.08
GFTIDDYAMH	GISWNKGGIGYADSVK	VGRGGGYFDY	nd / nd / nd	nd
GFTWDDYAMH	GISWNSMSIGYALSVK	VGRGGGYFDY	5.82 / nd / 4.73	5.28
GFTGDSYAMH	GISWNSTSIGYADSVK	VGRGGGYFDY	5.29 / 5.98 / nd	5.63
GFTGDDYAIH	GISWNSGSIGYADSTK	VGRGGGYFDY	4.71 / nd / nd	4.71
GFTDQDYAMH	GISWNSGTIGYADSVK	VGRGGGYFDY	6.14 / 4.27 / nd	5.20
GFTRDDYAMH	GQSWNSGSIGYADSVK	VGEGGGYFDY	nd / nd / nd	nd
GFTNDDYAMH	GISWNSGHIGYADSCK	VGRGGGYFDY	nd / nd / nd	nd
GFTGDDYAMH	GISWNEGSIDYADSVK	VGRGGGYFDY	nd / 4.66 / 3.86	4.26
GFTKFDYAMH	GVSWNSGSIGYADSVK	VGRGGGYFDY	nd / 5.66 / 4.54	5.10
GFTHDDIAMH	GISWNSGSIGYNDSVK	VGRGGGYFDY	nd / nd / 4.17	4.17
GFTADDYAMH	GISWNSGSICYADSVK	VGRGGGYFDY	4.04 / nd / 4.88	4.46
GFTWDDYAMH	GISWNSGSIGYADSVK	VGAGGGYFQY	nd / nd / nd	nd
GFTSDDYAMH	GISWNSGSPGYADSVK	VGRGGGYFDY	nd / 4.49 / nd	4.49
GFTVDDYAMH	GISWNSGMIGYWDSVK	VGRGGGYFDY	5.31 / nd / nd	5.31
GFTVDDYAMH	GISWNSGSIGSADSVC	VGRGGGYFDY	4.40 / nd / nd	4.40
GFTCDDYAMH	GISWESGSIGYDDSVK	VGRGGGYFDY	4.99 / nd / nd	4.99
GFTTDDYAMH	GISWNSGSIGYADWVQ	VGRGGGYFDY	nd / nd / nd	nd
GFTNDDYAMC	GISWNSGSIGYADSVK	VGRGGGAFDY	4.17 / nd / 4.45	4.31
GFTQDDYRMH	GISWNSGSIGYADSVK	VGKGGGYFDY	nd / nd / 5.00	5.00
GFTVDDYAMH	GITWNSGSIGYADSVK	VGRSGGYFDY	4.18 / 3.42 / nd	3.80
GFTGDDYLKH	GISWNSGSIGYADSVK	VGRGGGYFDY	4.91 / nd / nd	4.91
GFTQEDYAMH	GESWNSGSIGYADSVK	VGRGGGYFDY	4.38 / 4.07 / nd	4.23
GFTRDDYSMH	GIAWNSGSIGYADSVK	VGRGGGYFDY	nd / nd / nd	nd
EFTDDDYAMH	GISWNSGSIGYADSVK	VGRGGGYSDY	nd / nd / nd	nd
GFTQDDYAMH	GISWESGSIGYADSVK	VPRGGGYFDY	nd / nd / nd	nd
GITGDDYAMH	GISWNSGSIGYADSVK	VWRGGGYFDY	nd / 5.91 / nd	5.91
GFTYDDYAMH	GISDNSGSIGYADSVK	VRRGGGYFDY	nd / nd / nd	nd
CFTDDDYAMH	GISWNSGSIGYIDSVK	VGRGGGYFDY	4.26 / nd / nd	4.26
GFTMDDYARH	GISWNSGSIGYSDSVK	VGRGGGYFDY	nd / nd / nd	nd

The 2 strongest on average among those seen in every replicate, once more:

CDR-H1	CDR-H2	CDR-H3	replicates, log10 nM	mean log10 Kd (nM)
GFSKPDYAMH	GISWNSGSIGYADSVK	VGRGGGYFDY	4.47 / 3.58 / 3.94	3.99
GFYQDVYAMH	GISWNSGSIGYADSVK	VGRGGGYFDY	4.60 / 3.88 / 4.39	4.29